US11236106B2, “Cycloalkane-1,3-diamine derivative” (Daiichi Sankyo Company, Limited, priority 2018, dated 2022)
Counter-ions that a name gives are not always drawn. Like-named read-outs stand apart in the source and are kept apart here.

Assays:
Test in all cases: cells
Conditions in all cases: Homo sapiens
MOLM-13 cells = system: MOLM-13 cells
MV-4-11 cells = system: MV-4-11 cells
K562 cells = system: K562 cells
[1] = MOLM-13, 168 h, read-out: GI50, cell growth inhibitory activity, MOLM-13, day 7, MOLM-13 cells, cultured 7 days, assigned by order and values
[2] = MV4-11, 168 h, read-out: GI50, cell growth inhibitory activity, MV-4-11, day 7, MV-4-11 cells, cultured 7 days, assigned by order and values
[3] = K562, 168 h, read-out: GI50, cell growth inhibitory activity, K562, day 7
[4] = MOLM-13, 72 h, read-out: GI50 (μM) Day3 MOLM-13, MOLM-13, Day3
[5] = MOLM-13, 168 h, read-out: GI50 (μM) Day7 MOLM-13, MOLM-13, Day7
[6] = MV4-11, 72 h, read-out: GI50 (μM) Day3 MV4;11, MV4;11, Day3
[7] = MV4-11, 168 h, read-out: GI50 (μM) Day7 MV4;11, MV4;11, Day7
[8] = K562, 72 h, read-out: GI50 (μM) Day3 K562
[9] = K562, 168 h, read-out: GI50 (μM) Day7 K562
[10] = MOLM-13, 72 h, read-out: GI50, cell growth inhibitory activity, MOLM-13, day 3, MOLM-13 cells, cultured 3 days, assigned by order and values
[11] = MV4-11, 72 h, read-out: GI50, cell growth inhibitory activity, MV-4-11, day 3, MV-4-11 cells, cultured 3 days, assigned by order and values
[12] = K562, 72 h, read-out: GI50, cell growth inhibitory activity, K562, day 3

SMILES	GI50 (MOLM-13 cells; [1]) [µM]	GI50 (MV-4-11 cells; [2]) [µM]	GI50 (K562 cells; [3]) [µM]	GI50 (MOLM-13 cells; [4]) [µM]	GI50 (MOLM-13 cells; [5]) [µM]	GI50 (MV-4-11 cells; [6]) [µM]	GI50 (MV-4-11 cells; [7]) [µM]	GI50 (K562 cells; [8]) [µM]	GI50 (K562 cells; [9]) [µM]	GI50 (MOLM-13 cells; [10]) [µM]	GI50 (MV-4-11 cells; [11]) [µM]	GI50 (K562 cells; [12]) [µM]
COc1nc(N(C)[C@H]2C[C@@H](NCc3ccc(-c4cnc(CO)c(OC)c4)cc3)C[C@H]2O)c2cc(CC(F)(F)F)sc2n1 [Example 112, (1R,2S,4R)-4-[({4-[6-(hydroxymethyl)-5-methoxypyridin-3-yl]phenyl}methyl)amino]-2-{[2-methoxy-6-(2,2,2-trifluoroethyl)thieno[2,3-d]pyrimidin-4-yl](methyl)amino}cyclopentan-1-ol hydrochloride]	0.995	0.0265	2.56									
CNc1nc(N(C)[C@H]2C[C@@H](NCc3ccc(-n4ccnc4)cc3)C[C@H]2O)c2cc(CC(F)(F)F)sc2n1 [Example 61, (1R,2S,4R)-4-({[4-(1H-imidazol-1-yl)phenyl]methyl}amino)-2-{methyl[2-(methylamino)-6-(2,2,2-trifluoroethyl)thieno[2,3-d]pyrimidin-4-yl]amino}cyclopentan-1-ol hydrochloride]				0.974	0.129	0.11	0.0472	6.25	5.74			
CN(c1ncnc2sc(CC(F)(F)F)cc12)[C@H]1C[C@@H](NCc2ccc(-c3cccc(CS(C)(=O)=O)c3)cc2)C[C@H]1O [Example 86, (1R,2S,4R)-4-[({3′-[(methanesulfonyl)methyl][1,1′biphenyl]-4-yl}methyl)amino]-2-{methyl[6-(2,2,2 trifluoroethyl)thieno[2,3-d]pyrimidin-4-yl]amino}cyclopentan-1-ol hydrochloride]	0.949	0.372	1.96							1.78	0.608	3.97
COc1nc(N(C)[C@H]2C[C@@H](NCc3ccc(-c4cnc(N(C)C)c(OC)c4)cc3)C[C@H]2O)c2cc(CC(F)(F)F)sc2n1 [Example 117, (1R,2S,4R)-4-[({4-[6-(dimethylamino)-5-methoxypyridin-3-yl]phenyl}methyl)amino]-2-{[2-methoxy-6-(2,2,2-trifluoroethyl)thieno[2,3-d]pyrimidin-4-yl](methyl)amino}cyclopentan-1-ol hydrochloride]	0.184	0.0468	1.56									
COc1cc(-c2ccc(CN[C@H]3C[C@@H](O)[C@@H](N(C)c4ncnc5sc(CC(F)(F)F)cc45)C3)cc2)nnc1N(C)C [Example 98, (1R,2S,4R)-4-[({4-[6-(dimethylamino)-5-methoxypyridazin-3-yl]phenyl}methyl)amino]-2-{methyl[6-(2,2,2-trifluoroethyl)thieno[2,3-d]pyrimidin-4-yl]amino}cyclopentan-1-ol hydrochloride]	0.105	0.0628	2.1							0.411	0.109	5.57
CNc1nc(N(C)[C@H]2C[C@@H](NCc3ccc(-c4cc(F)cc(OC)c4)cc3)C[C@H]2O)c2cc(CC(F)(F)F)sc2n1 [Example 75, (1R,2S,4R)-4-{[(3′-fluoro-5′-methoxy[1,1′-biphenyl]-4-yl)methyl}amino}-2-{methyl[2-(methylamino)-6-(2,2,2-trifluoroethyl)thieno[2,3-d]pyrimidin-4-yl]amino}cyclopentan-1ol hydrochloride]	0.194	0.0571	1.47									
COc1cc(-c2ccc(CN[C@H]3C[C@@H](O)[C@@H](N(C)c4ncnc5sc(CC(F)(F)F)cc45)C3)cc2)nnc1OC1CCCOC1 (mixture of isomers) [Example 108, (1R,2S,4R)-4-{[(4-{5-methoxy-6-[(oxan-3-yl)oxy]pyridazin-3-yl}phenyl)methyl]amino}-2-{methyl[6-(2,2,2-trifluoroethyl)thieno[2,3-d]pyrimidin-4-yl]amino}cyclopentan-1-ol hydrochloride]	0.0622	0.0234	> 5									
CNC(=O)c1cccc(-c2ccc(CN[C@H]3CC[C@@H](N(C)c4ncnc5sc(CC(F)(F)F)cc45)C3)cc2)c1 [Example 66, N-methyl-4′-({[|(1S,3R)-3-{methyl[6-(2,2,2-trifluoroethyl)thieno[2,3-d]pyrimidin-4-yl]amino}cyclopentyl]amino}methyl)[1,1′-biphenyl]-3-carboxamide hydrochloride]	0.54	0.177	0.865							0.978	0.286	1.61
COc1cc(-c2ccc(CN[C@H]3C[C@@H](O)[C@@H](N(C)c4ncnc5sc(CC(F)(F)F)cc45)C3)cc2F)cnc1F [Example 74, (1R,2S,4R)-4-({[3-fluoro-4-(6-fluoro-5-methoxypyridin-3-yl)phenyl]methyl}amino)-2-{methyl[6-(2,2,2-trifluoroethyl)thieno[2,3-d]pyrimidin-4-yl]amino}cyclopentan-1-ol hydrochloride]	0.122	0.0455	2.55									
CNc1nc(N(C)[C@H]2C[C@@H](NCc3ccc(-c4cnc(OC)c(OC)c4)cc3)C[C@@H]2OC)c2cc(CC(F)(F)F)sc2n1 [Example 24, N^4-[(1S,2S,4R)-4-({[4-(5,6-dimethoxypyridin-3-yl)phenyl]methyl}amino)-2-methoxycyclopentyl]-N^2,N^4-dimethyl-6-(2,2,2-trifluoroethyl)thieno[2,3-d]pyrimidine-2,4-diamine Hydrochloride]				0.873	0.104	0.0609	0.0302	3.23	2.57			
FC(F)(F)Cc1cc2c(N[C@@H]3CCC[C@H](NCc4ccc(-c5ccncc5)cc4)C3)ncnc2s1 [Example 40, (1S,3R)-N^1-{[4-(pyridin-4-yl)phenyl]methyl}-N^3-[6-(2,2,2-trifluoroethyl)thieno[2,3-d]pyrimidin-4-yl]cyclohexane-1,3-diamine hydrochloride]				4.54	4.33	2.62	2.16	5.53	4.16			
COc1cncc(-c2ccc(CN[C@H]3CC[C@@H](N(C)c4ncnc5sc(CC6CC6)cc45)C3)cc2)c1 [Example 9, (1R,3S)—N^1-[6-(cyclopropylmethyl)thieno[2,3-d]pyrimidin-4-yl]-N^3-{[4-(5-methoxypyridin-3-yl)phenyl]methyl}-N^1-methylcyclopentane-1,3-diamine Hydrochloride]				1.61		0.585		2.95				
COc1nc(N(C)[C@H]2C[C@@H](NCc3ccc(-c4nnc(OC(F)F)cc4OC)cc3)C[C@H]2O)c2cc(CC(F)(F)F)sc2n1 [Example 110, (1R,2S,4R)-4-[({4-[6-(difluoromethoxy)-4-methoxypyridazin-3-yl]phenyl}methyl)amino]-2-{[2-methoxy-6-(2,2,2-trifluoroethyl)thieno[2,3-d]pyrimidin-4-yl](methyl)amino}cyclopentan-1-ol hydrochloride]	0.253	0.0763	1.6									
COc1cncc(-c2ccc(CN[C@H]3C[C@@H](O)C[C@@H](Nc4ncnc5sc(CC(F)(F)F)cc45)C3)cc2)c1 (single isomer, unassigned) [Example 15A, Hydrochloride]				4.41		0.269		> 10				
